The values below come from PMC3689823.

The target of this assay is YFP-Clu (human). The assay can be described thus: FRET or BRET; receptor (acceptor) photobleaching FRET in co-transfected HEK293T cells, CFP donor and YFP receptor, bleached at 515 nm for 60 s. (Bioluminescence resonance energy transfer reports proximity on the nanometre scale.)

In turn, “Aβ42-CFP (from UniProt P05067 672-713) (peptide)” had an FRET efficiency of 33.7%.
